One assay has as its system human PBMCs. Kind of assay: Human PBMC cytokine response assay (IFN-γ and IFN-α in cell-free medium by ELISA), with or without cPLGA. The assay is classed as cell-based. A general note: In an ELISA, binding on a coated surface is turned into a signal by an enzyme label.
A further assay relates to mouse splenocytes. Put plainly: Mouse splenocyte cytokine secretion (IL-6, IL-12, IFN by ELISA). The assay is classed as cell-based, BALB/c mice. To be noted: dose 0.1 μg/ml; 24 h. As for the experimental part: Polynucleotides and chimeric compounds were tested for immunostimulatory activity on mouse splenocytes. Immunostimulation was assessed by measurement of cytokine secretion into the culture media. Cytokine levels in the culture supernatant were determined by enzyme-linked immunosorbent assay (ELISA) tests.
Cells were isolated and prepared using standard techniques. Spleens of 8 to 20 week-old BALB/c mice were harvested and the splenocytes isolated using standard teasing and treatment with ACK lysing buffer from BioWhittaker, Inc. Four spleens were pooled in this experiment. Isolated cells were washed in RPMI 1640 media supplemented with 2% heat-inactivated fetal calf serum (FCS), 50 μM 2-mercaptoethanol, 1% penicillin-streptomycin, and 2 mM L-glutamine and resuspended at approximately […] in 10% FCS/RPMI (RPMI 1640 media with 10% heat-inactivated FCS, 50 μM 2-mercaptoethanol, 1% penicillin-streptomycin, and 2 mM L-glutamine).
Cell cultures were set up in triplicate with approximately 7×10^5 cells/well in a 96-well flat microtiter plate in 100 μl 10% FCS/RPMI with the cells allowed to rest for at lest 1 hour after plating. The indicated test compounds were incubated (at the indicated concentrations) for 24 hours at 37° C. Cell supernatants were harvested and frozen at −80° C. Cytokine production by the cells was determined by ELISAs, as shown in 19.

In a further assay the test system is CD19+ B cells. Put plainly: Human B cell proliferation assay (3H-thymidine incorporation). The following applies: Experiment B. Background: Dividing cells build labelled thymidine or BrdU into new DNA.

For “5′-TGACTGTGAACGTTCGAGATGA-3′ (SEQ ID NO: 2)”, the IFN-α in the assay on human PBMCs (Table 11, donor 28045) was determined as 108 pg/mL. For the same substance, the IFN-g in the assay with human PBMCs (Table 25, donor 28250, polynucleotides/spacers at amounts equivalent to the CIC, spacers alone 9 uM) came out at 121 pg/mL. Also, the IL-6 in the assay on mouse splenocytes came out at 121. Besides, in the assay with CD19+ B cells (donor 121, 2 μg/ml), the cpm1 is 19996 cpm, the cpm2 came to 15031 cpm and the cpm3 was 19804 cpm. Also, in the assay with CD19+ B cells (donor 121 mean, 2 μg/ml), the mean cpm amounted to 18277 cpm. Further, the mean of both in the assay on CD19+ B cells (mean of donors 121 and 194, 2 μg/ml) came to 15041 cpm.
